# Earlier results, collected in paper PMC7285485, “Antifungal and Antibiofilm Activities and the Mechanism of Action of Repeating Lysine-Tryptophan Peptides against Candida albicans” (Microorganisms, 2020).
# Tested on: red blood cells
# Conditions: 200 µM peptide, ref [35]; cited from earlier work
# Source text: Furthermore, it maintained its antifungal activity in physiological salt concentrations and at low pH values.
structure (smiles),measurement,value
"CC[C@H](C)[C@H](NC(=O)CN)C(=O)NCC(=O)N[C@@H](C)C(=O)N[C@H](C(=O)N[C@@H](CC(C)C)C(=O)N[C@@H](CCCCN)C(=O)N[C@H](C(=O)N[C@@H](CC(C)C)C(=O)N[C@H](C(=O)N[C@H](C(=O)NCC(=O)N[C@@H](CC(C)C)C(=O)N1CCC[C@H]1C(=O)N[C@@H](C)C(=O)N[C@@H](CC(C)C)C(=O)N[C@H](C(=O)N[C@@H](CO)C(=O)N[C@@H](Cc1c[nH]c2ccccc12)C(=O)N[C@H](C(=O)N[C@@H](CCCCN)C(=O)N[C@@H](CCCNC(=N)N)C(=O)N[C@@H](CCCCN)C(=O)N[C@@H](CCCNC(=N)N)C(=O)N[C@@H](CCC(N)=O)C(=O)N[C@@H](CCC(N)=O)C(N)=O)[C@@H](C)CC)[C@@H](C)CC)[C@@H](C)O)[C@@H](C)O)C(C)C)C(C)C [Melittin, melittin, reference compound]",Hemolysis,100%
